Data: article PMC7665585, “Antidepressive effect of an inward rectifier K^+ channel blocker peptide, tertiapin-RQ” (PLoS ONE, 2020)

Molecular target: T1, rat ROMK (Rattus norvegicus, UniProt P35560)
T1 construct: expressed in transfected cells; host or cells: 293T cell line 208-4 (lentiviral transduction, GFP coexpressed)
T1 sequence (P35560 1-391): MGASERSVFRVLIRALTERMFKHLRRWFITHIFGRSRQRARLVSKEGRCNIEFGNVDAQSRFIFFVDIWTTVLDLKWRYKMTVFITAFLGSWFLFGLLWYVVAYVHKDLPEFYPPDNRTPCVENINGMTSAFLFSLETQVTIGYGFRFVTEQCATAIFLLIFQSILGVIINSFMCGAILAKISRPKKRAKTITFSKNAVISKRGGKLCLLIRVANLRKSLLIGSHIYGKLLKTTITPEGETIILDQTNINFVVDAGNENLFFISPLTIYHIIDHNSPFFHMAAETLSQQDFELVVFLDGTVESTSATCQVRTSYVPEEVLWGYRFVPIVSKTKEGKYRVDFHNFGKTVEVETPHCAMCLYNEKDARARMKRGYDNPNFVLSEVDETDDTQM
Assay: Whole-cell patch-clamp of ROMK currents in 208–4 cells
Type: cell-based
Settings: blockade at 1 μM estimated from fitted Hill curve (four parameters), whole-cell conductance, n = 3–6, read-out: Activity (ROMK channel blocking activity, percentage of blockade at 1 μM)
From the text: The cDNAs for rat ROMK and mouse GIRK1, 2, and 4 were generously donated by Drs Mikio Hayashi (Kansai Medical University) and David Weaver (Vanderbilt University). The ROMK channels were stably expressed by a cell line, 208–4, which was transduced with lentiviral vectors coexpressing the channel and green fluorescent protein (GFP) as described previously. The GIRK genes, cloned in a pCMV6 plasmid (Origene Technologies Inc, Rockville, MD), were transiently expressed in 293T cells with calcium phosphate transfection. GIRK channel currents were recorded 24 h after transfection.
Cells grown on small cover glasses (3 × 18 mm) were placed in a recording chamber. Whole-cell currents were recorded in Tyrode solution using an Axopatch 200B amplifier (Axon Instruments, Foster City, CA) at 25°C. Tyrode solution contained (in mM): NaCl 140, KCl 5.4, NaH2PO4 0.33, CaCl2 2, MgCl2 1, HEPES 5, and glucose 5.5 (pH 7.4 adjusted with NaOH). […] Whole-cell currents were recorded 60 sec after the peptide application and those from 100 to 300 msec of the step pulses were averaged. […] Whole-cell conductance was calculated as the slope of the current-voltage (I-V) relationship from -140 mV to -100 mV and normalized to the initial value (0 μM TPN), in which BaCl2-resistant current was subtracted and indicted as a percentage.

Q: CC[C@H](C)[C@@H]1NC(=O)[C@H](CCCNC(=N)N)NC(=O)[C@H](CC(N)=O)NC(=O)[C@@H]2CSSC[C@@H](C(=O)NCC(=O)N[C@@H](CCCCN)C(=O)N[C@@H](CCCCN)C(N)=O)NC(=O)[C@H](CCCCN)NC(=O)[C@H](CCCCN)NC(=O)[C@H](Cc3c[nH]c4ccccc34)NC(=O)[C@H](CSSC[C@H](NC(=O)[C@H](CC(C)C)NC(=O)[C@H](C)N)C(=O)N[C@@H](CC(N)=O)C(=O)N2)NC(=O)[C@H](CCC(N)=O)NC(=O)[C@H](Cc2c[nH]cn2)NC(=O)[C@@H]2CCCN2C(=O)[C@H]([C@@H](C)CC)NC(=O)[C@H]([C@@H](C)CC)NC1=O [Peptide 1, TPN-Q, reference compound] was tested. Which inhibition at 1 µM did it give?
A: The inhibition at 1 µM was > 80%.
